What was measured:
[1] = target: Androgen receptor (Homo sapiens, UniProt P10275); test: Potency index, ratio of galeterone DC50 to test compound DC50 for induction of androgen receptor degradation in human LNCaP cells; format: cell-based
[2] = tested on: Androgen receptor (Homo sapiens), P10275 [F877L]; test: Antagonist activity at androgen receptor F876L mutant expressed in HEK293 cells assessed as reduction in DHT-induced transcriptional activation of androgen receptor incubated for 24 hrs by Steady-Glo assay relative to control; format: cell-based; design: scale not given: the % may be the effect or the level left; conditions: filed as antagonist

The chains behind the UniProt entries cited, without tags or fusion partners.
UniProt P10275, whole entry F877L: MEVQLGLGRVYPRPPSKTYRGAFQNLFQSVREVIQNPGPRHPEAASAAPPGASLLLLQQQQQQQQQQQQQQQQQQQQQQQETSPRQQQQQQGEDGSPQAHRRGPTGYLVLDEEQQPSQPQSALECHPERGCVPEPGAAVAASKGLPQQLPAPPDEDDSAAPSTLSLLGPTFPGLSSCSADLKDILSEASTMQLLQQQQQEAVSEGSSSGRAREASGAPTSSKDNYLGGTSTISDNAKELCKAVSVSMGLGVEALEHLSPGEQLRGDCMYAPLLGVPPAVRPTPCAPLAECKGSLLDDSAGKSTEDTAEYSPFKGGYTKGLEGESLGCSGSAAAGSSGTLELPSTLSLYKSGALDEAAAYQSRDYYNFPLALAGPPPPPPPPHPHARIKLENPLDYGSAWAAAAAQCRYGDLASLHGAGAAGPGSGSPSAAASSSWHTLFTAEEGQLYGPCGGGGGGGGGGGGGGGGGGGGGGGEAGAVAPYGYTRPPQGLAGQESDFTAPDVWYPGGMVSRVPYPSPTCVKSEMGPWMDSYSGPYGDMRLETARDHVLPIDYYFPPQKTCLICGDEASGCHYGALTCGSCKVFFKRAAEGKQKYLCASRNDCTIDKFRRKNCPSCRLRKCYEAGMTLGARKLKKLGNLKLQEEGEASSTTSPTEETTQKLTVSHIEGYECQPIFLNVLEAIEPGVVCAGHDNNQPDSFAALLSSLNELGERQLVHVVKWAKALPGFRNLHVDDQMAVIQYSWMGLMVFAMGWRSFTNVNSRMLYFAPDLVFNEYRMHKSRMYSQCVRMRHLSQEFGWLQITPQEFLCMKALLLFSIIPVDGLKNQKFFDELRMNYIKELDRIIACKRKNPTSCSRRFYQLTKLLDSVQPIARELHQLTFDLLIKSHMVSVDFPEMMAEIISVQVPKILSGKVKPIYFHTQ

Cc1cn(C2=CCC3C4CC=C5C[C@@H](NC(=O)c6ccncc6)CC[C@]5(C)C4CC[C@]23C)cn1 (some centres not stated) was tested, and the Ratio [1] was 2.5 and the Activity [2] was 117%.

Source: ChEMBL document CHEMBL5331145, “Discovery of a Novel Bifunctional Steroid Analog, YXG-158, as an Androgen Receptor Degrader and CYP17A1 Inhibitor for the Treatment of Enzalutamide-Resistant Prostate Cancer” (J Med Chem, 2023)
